Measurements taken from ChEMBL document CHEMBL5726217, “Therapeutic compounds, compositions and methods of use thereof” (2019).

Protein sequences, listed by entry. Tags and fused reporters are not part of them. Lines headed by an entry give the natural chain unless they say otherwise; changes in a name come on top.
UniProt O60674: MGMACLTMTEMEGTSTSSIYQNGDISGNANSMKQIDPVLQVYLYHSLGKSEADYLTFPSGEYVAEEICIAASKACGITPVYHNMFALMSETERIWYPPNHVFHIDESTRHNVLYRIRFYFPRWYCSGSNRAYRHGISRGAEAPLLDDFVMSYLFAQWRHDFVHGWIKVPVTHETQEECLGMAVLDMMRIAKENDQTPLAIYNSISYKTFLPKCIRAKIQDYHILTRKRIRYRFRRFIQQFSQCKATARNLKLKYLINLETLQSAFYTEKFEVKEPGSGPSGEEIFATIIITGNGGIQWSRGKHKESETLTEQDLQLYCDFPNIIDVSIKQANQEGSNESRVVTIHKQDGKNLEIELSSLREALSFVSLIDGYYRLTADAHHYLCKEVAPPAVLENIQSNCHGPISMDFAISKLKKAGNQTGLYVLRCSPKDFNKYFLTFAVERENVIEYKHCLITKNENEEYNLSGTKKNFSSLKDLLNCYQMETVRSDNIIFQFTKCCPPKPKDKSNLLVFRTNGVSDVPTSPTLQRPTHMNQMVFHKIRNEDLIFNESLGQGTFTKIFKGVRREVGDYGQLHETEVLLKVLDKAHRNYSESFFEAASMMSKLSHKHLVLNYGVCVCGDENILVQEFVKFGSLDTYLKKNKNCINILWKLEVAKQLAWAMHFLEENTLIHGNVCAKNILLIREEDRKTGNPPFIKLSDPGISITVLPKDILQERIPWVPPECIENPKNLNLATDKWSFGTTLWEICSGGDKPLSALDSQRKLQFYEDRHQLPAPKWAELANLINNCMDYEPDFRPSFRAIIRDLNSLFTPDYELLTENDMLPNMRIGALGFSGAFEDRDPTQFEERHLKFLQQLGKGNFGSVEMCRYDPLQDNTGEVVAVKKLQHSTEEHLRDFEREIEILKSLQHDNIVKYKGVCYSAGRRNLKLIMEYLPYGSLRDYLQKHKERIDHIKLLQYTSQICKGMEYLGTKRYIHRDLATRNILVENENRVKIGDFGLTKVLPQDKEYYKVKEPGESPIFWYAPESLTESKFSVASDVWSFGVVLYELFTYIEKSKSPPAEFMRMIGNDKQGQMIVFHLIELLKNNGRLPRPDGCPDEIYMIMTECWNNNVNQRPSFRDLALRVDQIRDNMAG

Target: Tyrosine-protein kinase JAK2 (Homo sapiens, UniProt O60674)

SMILES: CN1CCN(C(=O)Cn2cc(Nc3nc4c(N5C[C@H]6C[C@@H]5CN6C(=O)CCC(F)(F)F)cccn4n3)cn2)CC1
- Ki: 110 nM
